## Measured affinities in a library of Ab-95 light chain variants

Target: peptide PDVDLGDISGINAS, taken from heptad repeat 2 (HR2) of SARS-CoV-2 spike.

Ab-95 is the parent antibody, in scFv form: VH, then three GGGGS repeats, then VL. The heavy chain is unchanged in all variants.
VH: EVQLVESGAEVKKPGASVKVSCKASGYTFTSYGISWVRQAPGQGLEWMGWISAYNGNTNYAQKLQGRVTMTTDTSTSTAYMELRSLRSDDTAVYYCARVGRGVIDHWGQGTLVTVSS
VL: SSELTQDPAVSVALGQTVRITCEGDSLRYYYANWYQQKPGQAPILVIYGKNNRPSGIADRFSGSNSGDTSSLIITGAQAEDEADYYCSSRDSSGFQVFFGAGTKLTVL

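The parent was found by panning a naive human phage display library on the peptide. AAYL52 was designed without a model: most single CDR substitutions and a random sample of double and triple ones. The assay is AlphaSeq: two haploid yeast populations carry antibody and antigen on their surface. Mating (16 h, 30 °C) was followed by selection of diploids and sequencing of their barcodes. Each replicate has its own calibration line, from reference interactions of the BCL2 family. Mating was done three times.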

The parent's light chain CDRs are EGDSLRYYYAN, GKNNRPS, SSRDSSGFQVF; each variant's own CDRs replace them letter for letter.
All variants listed here change N52 of the VL, counted from its first residue.
Values are apparent Kd, the geometric mean of the replicates that gave a signal; lower means stronger binding.
"no signal" marks a missing value. The strain was present, yet no cells mated with the target were sequenced in any replicate, which points to weak or no binding.
Background: pairings of library AAYL52 with three empty control strains gave a value in 28% of cases (median 8.2 µM, 5th percentile 800 nM). Values in that range, when seen in few replicates, are hard to tell from nonspecific mating.

* EGDSLRYYYAN / GKNPRPS / SSRDSSGFQVF -> 300 µM (1 of 3 replicates)
* EGDSLRYYYAN / GRNPRPS / SSRDSKGFQVF -> 3.9 µM (1 of 3 replicates)
* EGDSLRYIYAN / GKNLRNS / SSRDSSGFQVF -> 1.1 µM (2 of 3 replicates)
* EGDSLRPYYAN / GKNFRPS / SSRDSSGKQVF -> 1.0 µM (3 of 3 replicates)
* EGDSLRYYYAN / GKNIRPS / SSRDSSGNQVF -> 710 nM (3 of 3 replicates)
* EGDSLRYYYVN / GKNCRPS / SQRDSSGFQVF -> 140 µM (3 of 3 replicates)
* HGDSLRYYYAN / GKNVRSS / SSRDSSGFQVF -> 160 nM (3 of 3 replicates)
* EGDSLRYYYAN / FQNPRPS / SSRDSSGFQVF -> no signal (0 of 3 replicates)
* EGDSLRYYYAN / GKNQRPS / SSRVSSGFQVF -> 2.3 µM (3 of 3 replicates)
* EGDSLRYYMAN / GKNMRPS / TSRDSSGFQVF -> 330 nM (3 of 3 replicates)
* EGDSLRYYMAN / GKNDRPS / SSRDSSGFTVF -> 65 nM (3 of 3 replicates)
* EGDSLRYYYAN / GKNMRPS / SSRDSSHTQVF -> no signal (0 of 3 replicates)
* EGDSLAYYYAN / MKNCRPS / SSRDSSGFQVF -> 6.0 µM (2 of 3 replicates)
* EGDSLRYYYAN / LKNGRPS / SSTDSSGFQVF -> 15 µM (2 of 3 replicates)
* EGDSLRYYYAN / QKNLRPS / SSRDSSGFQVF -> 7.8 µM (2 of 3 replicates)
* NGDLLRYYYAN / GKNERPS / SSRDSSGFQVF -> 48 µM (1 of 3 replicates)
* GGDSLRYYYAN / GKNLRPS / FSRDSSGFQVF -> 8.8 µM (3 of 3 replicates)
* EGDSLRYYYAN / GKNHRPS / SSRASSGDQVF -> 970 nM (3 of 3 replicates)
* EGDSLRYYYMN / GKNWRPS / SRRDSSGFQVF -> 36 µM (1 of 3 replicates)
* KGDSLRYYYAN / GKNHRPS / SSRDSSGFQPF -> 33 µM (2 of 3 replicates)
* EGDSLRLYYAN / GKNWRPS / SSRDSSDFQVF -> 16 µM (3 of 3 replicates)
* EGDSLRYGYAN / GKNFRPS / SSRDSSGFQVF -> 10 nM (3 of 3 replicates)
* EGDSLRYYYAN / GVNFRPS / SSRDSSGFQVF -> 9.4 µM (2 of 3 replicates)
* EGDSLRMYYAN / GKNGRPS / MSRDSSGFQVF -> 350 nM (3 of 3 replicates)
* EGDSLRYYQAN / GKNSRPY / SSRDSSGFQVF -> 21 nM (3 of 3 replicates)
* EGDSLRYYYAF / GKNPDPS / SSRDSSGFQVF -> 11 µM (2 of 3 replicates)
* EGDDLRYYYAN / GKKPRPS / SSRDSSGFQVF -> no signal (0 of 3 replicates)
* EGDSLRYYYAN / GKNFRPS / SQRDSSGFQVF -> 590 nM (3 of 3 replicates)
* EGDSLQYTYAN / GKNWRPS / SSRDSSGFQVF -> 41 nM (3 of 3 replicates)
* EYDVLRYYYAN / GKNFRPS / SSRDSSGFQVF -> 10 µM (2 of 3 replicates)
* EGDSLRYYYAG / GKNVRPS / SSRDVSGFQVF -> 3.9 µM (2 of 3 replicates)
* ECDSLRYYYAN / GKPERPS / SSRDSSGFQVF -> 31 µM (2 of 3 replicates)
* EGDSLRYYYAN / GKNKRLS / SSRDSSGFQVF -> 1.7 µM (3 of 3 replicates)
* EGDSLRQYYAN / GKNFRPS / SSRDGSGFQVF -> 310 nM (3 of 3 replicates)
* EGDSLRYYYAN / TKNERPS / SSRDSSGFQVF -> no signal (0 of 3 replicates)
* EGDSLKYYYAN / GKNCRPS / SSRKSSGFQVF -> 47 µM (3 of 3 replicates)

The 4 strongest on average among those seen in every replicate, once more:

- EGDSLRYGYAN / GKNFRPS / SSRDSSGFQVF: 10 nM (3 of 3 replicates)
- EGDSLRYYQAN / GKNSRPY / SSRDSSGFQVF: 21 nM (3 of 3 replicates)
- EGDSLQYTYAN / GKNWRPS / SSRDSSGFQVF: 41 nM (3 of 3 replicates)
- EGDSLRYYMAN / GKNDRPS / SSRDSSGFTVF: 65 nM (3 of 3 replicates)

Values reported by Engelhart et al. 2022, doi:10.1038/s41597-022-01779-4 (FLAb copy).